# Apparent affinities of Ab-14 variants for a coronavirus HR2 peptide

From the AlphaSeq antibody data of Li et al. 2023 (doi:10.1038/s41467-023-39022-2), copy in the FLAb collection.

All variants were tested on one target, the spike HR2 peptide PDVDLGDISGINAS (SARS-CoV-2).

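Phage display of a naive human antibody library on the peptide gave the parent. Designed CDR sequences, proposed from the first random library and measured here. Their group label is 14L_En_Gibbs (En: ensemble of fine-tuned language models; Gibbs: Gibbs sampling). In AlphaSeq, yeast of one mating type display the scFv and yeast of the other type display the target. After mating in shaken culture at 30 °C for 16 h, diploids were selected and their barcode pairs sequenced. Each replicate has its own calibration line, from reference interactions of the BCL2 family. There are six technical replicates.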

Parent: Ab-14, a human scFv built as VH, three GGGGS repeats, VL. Only the CDRs of the light chain vary.
VH: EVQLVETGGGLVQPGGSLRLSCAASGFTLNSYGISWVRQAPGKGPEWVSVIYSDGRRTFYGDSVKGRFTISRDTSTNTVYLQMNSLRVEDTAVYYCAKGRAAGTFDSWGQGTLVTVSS
VL: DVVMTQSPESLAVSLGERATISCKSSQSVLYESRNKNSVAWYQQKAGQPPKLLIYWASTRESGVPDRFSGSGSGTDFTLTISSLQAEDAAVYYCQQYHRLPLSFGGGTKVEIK

Each variant is given by its three light chain CDRs, as the data file delimits them; those of the parent are KSSQSVLYESRNKNSVA, WASTRES, QQYHRLPLS. Values are log10 of the apparent Kd in nM; lower means stronger binding. Replicates are averaged; those with no signal do not enter the mean. "nd" marks a missing value. The strain was present, yet no cells mated with the target were sequenced in that replicate, which points to weak or no binding. The authors averaged sequences with at least three values out of six and counted those with two or fewer as poor binders. A sequence measured in both rounds can read differently, since the two assays cover different ranges. The parent sequence was in this pool as ten entries: three were never detected, three once, and four in most replicates, with averages from 0.34 to 2.37. Three control strains display no target. For all light chain designs, 4% of the pairings with them gave a signal, with a median of 2.64 and one signal in twenty below 1.59, so weak values seen in few replicates may be background. Also given: how often the same scFv was detected with the empty control strains, with their mean in brackets.

CDR-L1,CDR-L2,CDR-L3,log10 Kd (nM) by replicate,"mean, log10 nM",control signals
WLNWEGQGSDRGMSNIA,DSDLRMA,QQYHRLPLS,0.12 0.18 0.04 -0.08 0.01 0.12,0.07,3 of 18 (3.54)
QIQEESEVGYKDKNSMA,DSECKAA,QQYFQLPLM,0.67 0.36 0.25 0.30 0.62 0.79,0.50,0 of 18
KIRVHNLMFYQNENSIA,GQSNRIE,QQYYHLPLT,1.93 1.26 1.51 1.38 1.34 1.25,1.45,1 of 18 (3.73)
SFDLTKSGMENEQYSIA,ERNELMT,QDYHRLPLA,nd nd nd nd nd nd,nd,1 of 18 (2.57)
NIQDNLGGLLSQINSVA,STEEKSD,QSYHRLPLS,0.46 0.53 0.39 0.57 0.40 0.65,0.50,0 of 18
KFKAMLNMWARDISNVA,HADERNV,QQYSRLPLG,1.07 1.31 0.96 1.43 2.21 1.66,1.44,0 of 18
QMTGQLFEQGNRSEPIA,HESMKEK,QQYFQLPLT,nd 2.28 1.66 nd nd 2.72,2.22,0 of 18
SVHGQGTTGEKNWESVA,ENSIRVE,QQYSHLPLL,1.50 1.87 2.48 1.70 1.38 2.46,1.90,1 of 18 (3.13)
QLQYAPGESLRSTHSIA,DVNIKDM,QQYARLPLA,0.38 0.24 0.24 0.31 0.41 0.25,0.31,3 of 18 (2.86)
SVPSEMNQQQTQVNSVA,GEQHTAR,QQYGRLPLS,nd nd nd nd nd nd,nd,0 of 18
QLGKNQSGDTLSQNAIA,HDALLVD,QQYFRLPLL,1.47 1.19 1.11 1.63 1.37 1.72,1.41,2 of 18 (2.83)
LTMKFNSQMGNAQNSIA,AGTSRVQ,QCYYRLPLS,1.25 1.39 0.72 0.58 1.14 0.64,0.95,1 of 18 (2.51)
NVNVSEDQWPLSKNAIA,QTTCRVL,QQYAHLPLS,0.68 0.69 0.83 0.43 0.57 0.75,0.66,1 of 18 (2.54)
SITVIDNPGSQLHNNIA,QGSCRAE,QQYIRLPLI,1.15 1.22 0.99 0.98 0.93 1.17,1.07,1 of 18 (3.96)
HIDDFNFSEGEKWNAIA,QDATRLQ,QSYQRLPLA,nd nd nd nd nd nd,nd,0 of 18
RYQMDDNYGKGMRNNVA,DGAEVRM,QQYARLPLL,nd nd nd nd nd nd,nd,0 of 18
KIYELGKGNIKTNNNIA,QTDIRML,QSYNRLPLS,0.92 0.60 0.30 0.46 0.64 0.72,0.61,3 of 18 (2.50)
KFNMEVQGQNNNKYNIA,AAHQLEY,QTYHRLPLV,1.21 0.66 0.90 0.68 0.89 0.69,0.84,0 of 18
KLSWDDMSHFNTRSAVA,DMTMRAF,QQYNRLPLD,0.36 0.28 0.22 0.14 0.11 0.30,0.24,1 of 18 (3.08)
KLYQRGLGSQKVDRSIA,ETSTRCT,QSYQRLPLS,1.43 2.23 1.87 2.50 1.94 2.99,2.16,2 of 18 (3.00)
AVSIQQMENTAIWNAIA,DTSLRAH,QQYYHLPLC,1.56 0.97 0.82 0.59 0.90 0.89,0.96,1 of 18 (2.84)
QLFSRWGQLEEISYAVA,DATTVID,QQYMHLPLT,1.53 1.96 1.91 2.31 1.47 2.06,1.87,1 of 18 (1.79)
RLRLKELGMSYDANQVA,DSENRIK,QQYYRLPLT,0.56 0.22 0.16 0.26 0.45 0.51,0.36,1 of 18 (4.87)
QLTWNDRGHQAKGGSIA,DATETME,QQYMHLPLY,0.41 0.25 0.12 0.12 0.06 0.11,0.18,0 of 18
KVTTNLEHQAQRDNSIA,EADMVAA,QDYMRLPLI,2.10 1.96 2.36 2.14 1.97 1.86,2.06,2 of 18 (2.61)
STFFHDDQKQEESNNIA,HASLRAV,QQYMHLPLV,0.71 0.56 0.31 0.23 0.36 0.86,0.51,1 of 18 (2.70)
VMFGGLYWGNIEHQAIA,NVDMREK,QQYHRLPLQ,1.96 1.82 1.73 2.30 2.08 1.72,1.93,0 of 18
KFAGGLDYNNAHKSAIA,HADIRNI,QQYFRLPLD,1.07 0.93 1.53 0.89 2.00 2.52,1.49,0 of 18
KLRLHNLMFYENENSIA,DVSNRAY,QQYYHLPLN,1.65 1.37 1.23 1.62 1.70 2.37,1.66,0 of 18
GIHSQMVGTSAVKENIA,NEAERLE,QQYQRLPLT,0.42 0.11 0.15 0.22 -0.10 0.11,0.15,0 of 18
NLNDSEMQMPQMTSNIA,QTTLRNL,QQYAKLPLS,0.59 0.34 0.22 0.16 -0.07 0.30,0.26,2 of 18 (2.57)
MIDMGEAPNGQQTSSIA,QGHLRAE,QQYGRLPLC,0.75 0.67 0.57 0.50 0.62 0.86,0.66,0 of 18
QLQQVQQGDTISEYSVA,HAEVSGR,QQYSQLPLI,nd nd nd nd nd nd,nd,0 of 18
MLWQQMEGFNGVKDAIA,NAEEREG,QQYGRLPLS,1.28 1.59 1.41 1.71 1.62 1.35,1.49,3 of 18 (2.81)
KMELYTQQGNLPRNSIA,AATMRWE,QQYSHIPLM,2.31 1.40 2.24 2.62 2.56 1.71,2.14,1 of 18 (1.47)
SIRQVGCDNQRNHSNIA,DATQIEP,QQYSMLPLS,0.91 1.23 1.10 0.19 1.18 1.66,1.04,2 of 18 (2.37)
HLSFPWQSGHDSTNAVA,NDSTLMT,QHYNRLPLS,nd 4.03 nd 2.72 3.40 3.29,3.36,2 of 18 (2.28)
HLTMFSQGQGLMKNAIA,EDSEVAT,QQYVQLPLV,nd 1.24 1.76 1.65 2.23 1.26,1.63,0 of 18
RIQEQMQKPDNIGQNVA,ENQTVID,QQYAHLPLS,nd nd nd nd nd 2.08,2.08,1 of 18 (2.13)
KLGAWMYWPTEAKYAIA,QDEMRVH,QQYDRLPLT,nd nd nd nd nd 2.55,2.55,1 of 18 (2.36)
KLWAYTQGFFRNMQNIA,DISYRVT,QQYGRLPLS,1.88 1.68 1.04 0.89 0.94 1.21,1.27,0 of 18
NMNVSEDQWPSSKNAIA,QDTLRNL,QQYASLPLS,2.07 2.41 1.53 1.93 1.80 3.17,2.15,0 of 18
KVDISATVQGMHKSGVA,EHDMRVG,QQYFRLPLA,0.37 0.15 0.53 0.27 0.49 0.43,0.37,0 of 18
LLSGMVEEQLTRQNNIA,EGEFRDM,QQYNRLPLS,nd 1.70 0.97 nd nd nd,1.33,0 of 18
TLAQPQKELGYAKDNIA,DGSIRLG,QQYHRLPLV,0.14 0.06 0.44 -0.07 0.34 -0.07,0.14,0 of 18
ILSDHAVNQYDEADSIA,DKTENAV,QQYARLPLS,0.98 1.23 1.45 1.01 0.81 1.14,1.10,0 of 18
VMFGGLNFDNIEHQAIA,NVDVREK,QQYHRLPLQ,0.75 0.52 0.65 0.56 0.44 0.61,0.59,1 of 18 (2.00)
KVDMGELPNGFNRSSIA,QAEVRAP,QQYWQLPLC,0.30 0.25 0.13 0.10 0.35 0.26,0.23,2 of 18 (2.85)
MFDQQTMNENDKNNSVA,EVNHLYN,QQYAQLPLI,nd 2.30 2.92 2.68 3.62 nd,2.88,1 of 18 (3.38)

Excerpt, the final 4 entries:

CDR-L1,CDR-L2,CDR-L3,log10 Kd (nM) by replicate,"mean, log10 nM",control signals
ILSDHAVNQYDEADSIA,DKTENAV,QQYARLPLS,0.98 1.23 1.45 1.01 0.81 1.14,1.10,0 of 18
VMFGGLNFDNIEHQAIA,NVDVREK,QQYHRLPLQ,0.75 0.52 0.65 0.56 0.44 0.61,0.59,1 of 18 (2.00)
KVDMGELPNGFNRSSIA,QAEVRAP,QQYWQLPLC,0.30 0.25 0.13 0.10 0.35 0.26,0.23,2 of 18 (2.85)
MFDQQTMNENDKNNSVA,EVNHLYN,QQYAQLPLI,nd 2.30 2.92 2.68 3.62 nd,2.88,1 of 18 (3.38)